Results from patent publication US20150141411A1, “SUBSTITUTED 3,4-DIHYDRO-2H-PYRIDO[1,2-A]PYRAZINE-1,6-DIONE DERIVATIVES USEFUL FOR THE TREATMENT OF (INTER ALIA) ALZHEIMER'S DISEASE” (Janssen Pharmaceuticals, Inc., priority 2012, published 2015).

How the values were obtained:
γ-secretase = γ-secretase (Homo sapiens, UniProt P49768); test: Screening for γ-secretase-modulating activity: Aβ42 in supernatant of SKNBE2 cells carrying hAPP 695 wild type (Alphalisa)
Description: Screening was carried out using SKNBE2 human neuroblastoma cells carrying the hAPP 695—wild type, grown in Dulbecco's Modified Eagle's Medium/Nutrient mixture F-12 (DMEM/NUT-mix F-12) (HAM) provided by Invitrogen (cat no. 10371-029) containing 5% Serum/Fe supplemented with 1% non-essential amino acids, 1-glutamine 2 mM, Hepes 15 mM, penicillin 50 U/ml (units/ml) en streptomycin 50 μg/ml. Cells were grown to near confluency.
The screening was performed using a modification of the assay as described in Citron et al (1997) Nature Medicine 3: 67. Briefly, cells were plated in a 384-well plate at 10^4 cells/well in Ultraculture (Lonza, BE12-725F) supplemented with 1% glutamine (Invitrogen, 25030-024), 1% non-essential amino acid (NEAA), penicillin 50 U/ml en streptomycin 50 μg/ml in the presence of test compound at different test concentrations. The cell/compound mixture was incubated overnight at 37° C., 5% CO2. The next day the media were assayed by two sandwich immuno-assays, for Aβ42 and Aβ total.
Aβtotal and Aβ42 concentrations were quantified in the cell supernatant using the Aphalisa technology (Perkin Elmer). Alphalisa is a sandwich assay using biotinylated antibody attached to streptavidin coated donorbeads and antibody conjugated to acceptor beads. In the presence of antigen, the beads come into close proximity. The excitation of the donor beads provokes the release of singlet oxygen molecules that trigger a cascade of energy transfer in the acceptor beads, resulting in light emission. To quantify the amount of Aβ42 in the cell supernatant, monoclonal antibody specific to the C-terminus of Aβ42 (JRF/cAβ42/26) was coupled to the receptor beads and biotinylated antibody specific to the N-terminus of Aβ (JRF/AβN/25) was used to react with the donor beads. To quantify the amount of Aβtotal in the cell supernatant, monoclonal antibody specific to the N-terminus of Aβ (JRF/AβN/25) was coupled to the receptor beads and biotinylated antibody specific to the mid region of Aβ (biotinylated 4G8) was used to react with the donor beads.
To obtain the values reported in Table 3, the data are calculated as percentage of the maximum amount of amyloid Beta 42 measured in the absence of the test compound. The sigmoidal dose response curves were analyzed using non-linear regression analysis with percentage of the control plotted against the log concentration of the compound. A 4-parameter equation was used to determine the IC50.

Aβ42 = test: In vivo efficacy: brain soluble Aβ42 in non-transgenic rodents (MSD electrochemiluminescence multiplex); conditions: dose 30 mg/kg oral dosing, brain soluble fraction, animals sacrificed after 4 h
Description: (§1) To determine whether acute administration of an Aβ42 lowering agent would reduce Aβ42 levels in vivo, non-transgenic rodents, e.g. mice or rats were used. Animals treated with the Aβ42 lowering agent were examined and compared to those untreated or treated with vehicle and brain levels of soluble Aβ42, Aβ40, Aβ38, and Aβ37 were quantitated by Meso Scale Discovery's (MSD) electrochemiluminescence detection technology. Treatment periods varied from hours (h) to days and were adjusted based on the results of the Aβ42 lowering once a time course of onset of effect could be established.
(§2) A typical protocol for measuring Aβ42 lowering in vivo is shown but it is only one of many variations that could be used to optimize the levels of detectable Aβ. For example, Aβ42 lowering compounds were formulated in 20% of Captisol® (a sulfo-butyl ether of β-cyclodextrin) in water or 20% hydroxypropyl βcyclodextrin. The Aβ42 lowering agents were administered as a single oral dose or by any acceptable route of administration to overnight fasted animals. After 4 h, the animals were sacrificed and Aβ42 levels were analysed.
(§3) Blood was collected by decapitation and exsanguinations in EDTA-treated collection tubes. Blood was centrifuged at 1900 g for 10 minutes (min) at 4° C. and the plasma recovered and flash frozen for later analysis. The brain was removed from the cranium and hindbrain. The cerebellum was removed and the left and right hemisphere were separated. The left hemisphere was stored at −18° C. for quantitative analysis of test compound levels. The right hemisphere was rinsed with phosphate-buffered saline (PBS) buffer and immediately frozen on dry ice and stored at −80° C. until homogenization for biochemical assays.
(§4) Mouse brains from non-transgenic animals were resuspended in 8 volumes of 0.4% DEA (diethylamine)/50 mM NaCl containing protease inhibitors (Roche-11873580001 or 04693159001) per gram of tissue, e.g. for 0.158 g brain, add 1.264 ml of 0.4% DEA. All samples were homogenized in the FastPrep-24 system (MP Biomedicals) using lysing matrix D (MPBio #6913-100) at 6 m/s for 20 seconds. […] Nine parts of supernatant were neutralized with 1 part 0.5 M Tris-HCl pH 6.8 and used to quantify Aβ.
(§5) To quantify the amount of Aβ42, Aβ40, Aβ38, and Aβ37 in the soluble fraction of the brain homogenates, simultaneous specific detection of Aβ42, Aβ40, Aβ38, and Aβ37 was performed using MSD's electro-chemiluminescence multiplex detection technology. […] Following this incubation and subsequent wash steps the assay was finished by adding read buffer according to the manufacturer's instructions (Meso Scale Discovery, Gaitherburg, Md.).
(§6) The SULFO-TAG emits light upon electrochemical stimulation initiated at the electrode. MSD Sector instrument SI6000 was used for signal read-out. […]

Aβ40 = test: In vivo efficacy: brain soluble Aβ40 in non-transgenic rodents (MSD electrochemiluminescence multiplex); conditions: dose 30 mg/kg oral dosing, brain soluble fraction, animals sacrificed after 4 h
Description: as §1, §2, §3, §4, §5, §6

[1] = read-out: IC50 Aβ42, SKNBE2 human neuroblastoma cells carrying hAPP 695 wild type, overnight incubation, Aβ42 in cell supernatant
[2] = untreated animals (Ctrl) set at 100
[3] = untreated animals (Ctrl) set at 100, tested form: HCl

SMILES	IC50 (γ-secretase; [1])	Aβ42 (% vs Ctrl)_Mean (Aβ42; [2])	Aβ40 (% vs Ctrl)_Mean (Aβ40; [2])	Aβ42 (% vs Ctrl)_Mean (Aβ42; [3])	IC50 (γ-secretase; read-out: IC50 Aβ42, SKNBE2 human neuroblastoma cells carrying hAPP 695 wild type, overnight incubation, Aβ42 in cell supernatant, tested form: HCl)	Aβ40 (% vs Ctrl)_Mean (Aβ40; [3])
Cc1cn(-c2ccc3n(c2=O)C[C@H](C)N(Cc2ccc(Cl)c(Cl)c2)C3=O)cn1	1150 nM					
Cc1cn(-c2ccc3n(c2=O)C[C@@H](C)N(C(C)c2cc(Cl)cc(C(F)(F)F)c2)C3=O)cn1 (single isomer, unassigned) [130]	160 nM	67 % vs Ctrl	114 % vs Ctrl			
Cc1cn(-c2ccc3n(c2=O)CCN(CC2(c4cc(C(F)(F)F)cc(C(F)(F)F)c4)CC2)C3=O)cn1	40 nM	66 % vs Ctrl	84 % vs Ctrl			
Cc1cn(-c2ccc3n(c2=O)CCN(CC2(c4cc(C(F)(F)F)cc(C(F)(F)F)c4)CCC2)C3=O)cn1	30 nM	80 % vs Ctrl	97 % vs Ctrl			
Cc1cn(-c2ccc3n(c2=O)C[C@@H](C)N(CC2(c4cc(C(F)(F)F)cc(C(F)(F)F)c4)CC2)C3=O)cn1				41 % vs Ctrl	30 nM	57 % vs Ctrl

Like-named read-outs stand apart in the source and are kept apart here.
